In paper PMC9469208 (Journal of Medicinal Chemistry, 2022):

System: PTZ-kindled mice
Conditions: repeated injection, after kindling completion

Compound: CCCC(CCC)C(=O)O [VPA, valproic acid]
- effect on spontaneous locomotor activity, anxiety- and depressive-like behavior: did not produce any significant effects
